Experimental melting point values from OPERA 2.9

Values as listed in the OPERA 2.9 repository of K. Mansouri.

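The numbers are reported measurements, compiled and curated for the OPERA QSAR suite. One number stands for a compound and property, with no spread given. Method and conditions are not stated for these values. Where a salt, mixture or single isomer is drawn, the source does not say that exactly this form was tested. Some upstream entries may be estimates or bounds without being marked so.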

Melting points are in °C. "via" names the databases from which the curators took the value.

Listed for CC1=NN(Cc2ccccc2)C(=O)C1 [2-Pyrazolin-5-one, 1-benzyl-3-methyl-]: mp 176 °C (via OCHEM).
Listed for Cc1ccc(Nc2nc(N)nc(CCl)n2)cc1: mp 159 °C (via OCHEM).
Listed for Nc1sc2c(c1-c1nc3ccccc3[nH]1)CCCC2: mp 176 °C (via OCHEM).
Listed for Cc1ccc(C(=O)C(=O)O)cc1 [4-Methylbenzoylformic acid]: mp 177 °C (via OCHEM).
Listed for Cc1oc(-c2ccc(Cl)cc2)nc1C(=O)O [2-(4-chlorophenyl)-5-methyl-1,3-oxazole-4-carboxylic Acid]: mp 236 °C (via OCHEM).
Listed for Nc1ncc(-c2ccccc2)s1 [5-Phenylthiazol-2-amine]: mp 199 °C (via OCHEM).
Listed for CCOc1ccc(C(=O)CC(=O)C(=O)OC)cc1 [methyl 4-(4-ethoxyphenyl)-2,4-dioxobutanoate]: mp 90 °C (via OCHEM).
Listed for O=C(O)CN1C(=O)NC2(CCCC2)C1=O [(2,4-Dioxo-1,3-diazaspiro[4.4]nonan-3-yl)acetic acid]: mp 166 °C (via OCHEM).
Listed for Nc1nc2c(Cl)c(Cl)ccc2s1 [2-amino-4,5-dichlorobenzothiazole]: mp 130 °C (via OCHEM).
Listed for Cc1ccc(S(N)(=O)=O)c(C)c1 [m-Xylene-4-sulphonamide]: mp 140 °C (via OCHEM).
Listed for CC(C)(C)c1ccc(C(=O)O)cc1[N+](=O)[O-] [4-tert-butyl-3-nitrobenzoic acid]: mp 157 °C (via OCHEM).
Listed for COc1cccc(-n2cn[nH]c2=S)c1 [4-(3-methoxyphenyl)-4H-1,2,4-triazole-3-thiol]: mp 168 °C (via OCHEM).
Listed for CC1(c2cccs2)NC(=O)NC1=O (stereo unspecified) [5-methyl-5-thien-2-ylimidazolidine-2,4-dione]: mp 138 °C (via OCHEM).
Listed for Cc1cc(N)n(-c2ccc(F)cc2)n1 [1-(4-fluorophenyl)-3-methyl-1H-pyrazol-5-amine]: mp 110 °C (via OCHEM).
Listed for Sc1nncn1-c1ccccc1 [4-Phenyl-4H-1,2,4-triazole-3-thiol]: mp 173 °C (via OCHEM).
Listed for CCOC(=O)c1oc2ccc(OC)cc2c1C [Ethyl 5-methoxy-3-methyl-1-benzofuran-2-carboxylate]: mp 104 °C (via OCHEM).
Listed for O=C(CCCl)Nc1ccc(Cl)cc1 [3-Chloro-N-(4-chlorophenyl)propanamide]: mp 125 °C (via OCHEM).
Listed for O=C(O)c1ccc(S(=O)(=O)N2CCCCC2)cc1 [4-(Piperidine-1-sulfonyl)-benzoic acid]: mp 271 °C (via OCHEM).
Listed for Cc1ccc(NC(=O)c2ccccc2)cc1N [N-(3-amino-4-methylphenyl)benzamide]: mp 145 °C (via OCHEM).
Listed for O=C(O)C/C=C/c1cccc2c1OCO2 [(3E)-4-(1,3-Benzodioxol-4-yl)-3-butenoic acid]: mp 35 °C (via OCHEM).
Listed for CCCc1ccc(-c2csc(N)n2)cc1 [4-(4-propylphenyl)-1,3-thiazol-2-amine]: mp 116 °C (via OCHEM).
Listed for Nc1cc([N+](=O)[O-])c(F)cc1F [2,4-difluoro-5-nitroaniline]: mp 99 °C (via OCHEM).
Listed for CCOC(=O)c1sc(-c2ccc(Br)cc2)cc1N [Ethyl 3-amino-5-(4-bromophenyl)thiophene-2-carboxylate]: mp 106 °C (via OCHEM).
Listed for O=c1oc2cc(O)ccc2c2c1CCC2 [7-Hydroxy-2,3-dihydrobenzo[b]cyclopenta[d]pyran-4(1H)-one]: mp 215 °C (via OCHEM).
Listed for NNC(=S)N1CCOCC1 [morpholine-4-carbothiohydrazide]: mp 182 °C (via OCHEM).
Listed for Cc1c(C(=O)O)sc2ncn(C)c(=O)c12: mp 216 °C (via OCHEM).
Listed for OCCCCC(O)CO (stereo unspecified) [1,2,6-Hexanetriol]: mp -26.5 °C (via OCHEM, eChemPortal).
Listed for CC(=O)CC(=O)c1ccc(F)cc1 [1-(4-fluorophenyl)butane-1,3-dione]: mp 50 °C (via OCHEM).
Listed for N#CCC(=O)Nc1ccccn1 [2-Cyano-N-(pyridin-2-yl)acetamide]: mp 161 °C (via OCHEM).
Listed for Cc1cc(C)c2nc(N)sc2c1 [Benzothiazole, 2-amino-4,6-dimethyl-]: mp 136 °C (via OCHEM).
Listed for CCOC(=O)c1c(-c2ccccc2Cl)csc1N [ethyl 2-amino-4-(2-chlorophenyl)thiophene-3-carboxylate]: mp 69 °C (via OCHEM).
Listed for O=C(CCl)c1ccc(C2CCCCC2)cc1 [2-Chloro-1-(4-cyclohexylphenyl)ethan-1-one]: mp 184 °C (via OCHEM).
Listed for O=C(O)COc1ccc(Br)cc1Cl [(4-bromo-2-chlorophenoxy)acetic acid]: mp 147 °C (via OCHEM).
Listed for CC(=O)NCc1ccc(C(=O)CCl)cc1 [N-[4-(chloroacetyl)benzyl]acetamide]: mp 140 °C (via OCHEM).
Listed for Cc1ccc(S(=O)(=O)Cl)c(Br)c1 [2-Bromo-4-methylbenzene-1-sulfonyl chloride]: mp 71 °C (via OCHEM).
Listed for Nn1c(-c2ccc(Cl)cc2Cl)n[nH]c1=S: mp 91 °C (via OCHEM).
Listed for CC(C)(C)OC(=O)NC1(CN)CCCCCC1 [tert-Butyl [1-(aminomethyl)cycloheptyl]carbamate]: mp 78 °C (via OCHEM).
Listed for N#CCC(=O)Nc1ccc(C(=O)O)cc1 [4-(2-Cyano-acetylamino)-benzoic acid]: mp 196 °C (via OCHEM).
Listed for O=C(O)CCc1ccc(-c2ccccc2)o1 [3-(5-Phenyl-2-furyl)propanoic acid]: mp 119 °C (via OCHEM).
Listed for Cc1cc(CC#N)c(C)n1-c1ccc(Cl)cc1 [[1-(4-Chlorophenyl)-2,5-dimethyl-1H-pyrrol-3-yl]acetonitrile]: mp 75 °C (via OCHEM).
Listed for Cc1csc(C/C(N)=N\O)n1 [(1E)-N'-Hydroxy(4-methyl-1,3-thiazol-2-yl)ethanimidamide]: mp 127 °C (via OCHEM).
Listed for COc1ccc(NC(=O)C(=O)O)cc1 [[(4-methoxyphenyl)amino](oxo)acetic acid]: mp 207 °C (via OCHEM).
Listed for CC(=O)c1ccc2cccc3c2c1CC3 [1-(1,2-Dihydroacenaphthylen-3-yl)ethan-1-one]: mp 105 °C (via OCHEM).
Listed for Cc1c(C(=O)O)oc2c1ccc1ccccc12 [3-Methyl-naphtho[1,2-b]furan-2-carboxylic acid]: mp 207 °C (via OCHEM).
Listed for NS(=O)(=O)c1cccnc1 [pyridine-3-sulfonamide]: mp 110 °C (via OCHEM).
Listed for CC(C)C1OC(N)=NC1=O (stereo unspecified) [2-amino-5-isopropyl-1,3-oxazol-4(5H)-one]: mp 220 °C (via OCHEM).
Listed for O=C(O)c1cc2c(ccc3ccccc32)[nH]1 [3H-Benzo[e]indole-2-carboxylic acid]: mp 214 °C (via OCHEM).
Listed for CCN(CC)S(=O)(=O)c1ccc(Cl)c([N+](=O)[O-])c1 [4-chloro-N,N-diethyl-3-nitrobenzenesulfonamide]: mp 89.5 °C (via OCHEM).
Listed for CC(=O)N1CCC(N)CC1 [1-acetylpiperidin-4-amine]: mp 20 °C (via OCHEM).
Listed for Cc1cc(C)n(CCO)n1 [2-(3,5-Dimethyl-1H-pyrazol-1-yl)ethan-1-ol]: mp 75 °C (via OCHEM).
Listed for O=C(O)c1nn(-c2ccccc2)c2c1CCC2: mp 180 °C (via OCHEM).

Again, the 5 entries with the lowest mp:

SMILES	name	mp (°C)	via
OCCCCC(O)CO (stereo unspecified)	1,2,6-Hexanetriol	-26.5	OCHEM, eChemPortal
CC(=O)N1CCC(N)CC1	1-acetylpiperidin-4-amine	20	OCHEM
O=C(O)C/C=C/c1cccc2c1OCO2	(3E)-4-(1,3-Benzodioxol-4-yl)-3-butenoic acid	35	OCHEM
CC(=O)CC(=O)c1ccc(F)cc1	1-(4-fluorophenyl)butane-1,3-dione	50	OCHEM
CCOC(=O)c1c(-c2ccccc2Cl)csc1N	ethyl 2-amino-4-(2-chlorophenyl)thiophene-3-carboxylate	69	OCHEM